Columns and labels:
Experiment in all cases: selective drug sensitivity score (sDSS, relative to normal bone marrow) (sDSS (score)); higher = more potent and effective on the cell line relative to normal bone marrow cells
Settings in all cases: 72 h
[1] = system: COG-LL-317
[2] = system: ALL-PO
[3] = system: COG-LL-394h
[4] = system: SEM cells
[5] = system: MN-60
[6] = system: JURKAT
[7] = system: NALM-16
[8] = system: KOPN-8
[9] = system: NALL-1
[10] = system: RCH-ACV
[11] = system: ALL-SIL
[12] = system: MHH-CALL-4
[13] = system: NALM-6
[14] = system: PEER
[15] = system: KASUMI-9
[16] = system: COG-LL-332h
[17] = system: 697
[18] = system: CCRF-CEM
[19] = system: MOLT-16
[20] = system: DND-41
[21] = system: KARPAS-45
[22] = system: LC4-1
[23] = system: CCRF-HSB2
[24] = system: HAL-01
[25] = system: MHH-CALL-2
[26] = system: MOLT-14
[27] = system: COG-LL-402h
[28] = system: MHH-CALL-3
[29] = system: MOLT-4
[30] = system: SUP-B15
[31] = system: RPMI-8402
[32] = system: P12-ICHIKAWA
[33] = system: PF-382
[34] = system: TANOUE
[35] = system: COG-LL-319h
[36] = system: TMD5
[37] = system: KASUMI-2
[38] = system: 380
[39] = system: HPB-ALL
[40] = system: REH
[41] = system: COG-LL-355h
[42] = system: P30-OHKUBO
[43] = system: KASUMI-10
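Also: ALL cell lines in 384-well plates, five doses spanning 10,000-fold, each plate scaled between vehicle and 100 µmol/L benzalkonium chloride controls, sDSS an adapted area-under-curve metric.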

NCc1ccc(OCCCc2sc(-c3ccc4c(c3)/C(=N/Nc3nc5ccccc5s3)CCC4)nc2C(=O)O)cc1 [WEHI-539] (top concentration 2500 nM)
selective drug sensitivity score [1]: 11 | selective drug sensitivity score [2]: -0.02 | selective drug sensitivity score [3]: 2.78 | selective drug sensitivity score [4]: -0.02 | selective drug sensitivity score [5]: 0.98 | selective drug sensitivity score [6]: 2.38 | selective drug sensitivity score [7]: -0.02 | selective drug sensitivity score [8]: -0.02 | selective drug sensitivity score [9]: -0.02 | selective drug sensitivity score [10]: -0.02 | selective drug sensitivity score [11]: 10.2 | selective drug sensitivity score [12]: 2.18 | selective drug sensitivity score [13]: 1.28 | selective drug sensitivity score [14]: 9.48 | selective drug sensitivity score [15]: -0.02 | selective drug sensitivity score [16]: 3.98 | selective drug sensitivity score [17]: -0.02 | selective drug sensitivity score [18]: 8.38 | selective drug sensitivity score [19]: -0.02 | selective drug sensitivity score [20]: 6.88 | selective drug sensitivity score [21]: 11.6 | selective drug sensitivity score [22]: -0.02 | selective drug sensitivity score [23]: 4.48 | selective drug sensitivity score [24]: -0.02 | selective drug sensitivity score [25]: 0.08 | selective drug sensitivity score [26]: 2.48 | selective drug sensitivity score [27]: 6.78 | selective drug sensitivity score [28]: -0.02 | selective drug sensitivity score [29]: 8.38 | selective drug sensitivity score [30]: 3.78 | selective drug sensitivity score [31]: 4.58 | selective drug sensitivity score [32]: 10.1 | selective drug sensitivity score [33]: 2.68 | selective drug sensitivity score [34]: 0.38 | selective drug sensitivity score [35]: 5.28 | selective drug sensitivity score [36]: -0.02 | selective drug sensitivity score [37]: -0.02 | selective drug sensitivity score [38]: -0.02 | selective drug sensitivity score [39]: 12.3 | selective drug sensitivity score [40]: 2.18 | selective drug sensitivity score [41]: 7.58 | selective drug sensitivity score [42]: -0.02 | selective drug sensitivity score [43]: 3.58
